Sequences of proteins named here, by UniProt entry; tags and fusion partners are left off.
UniProt Q07820, whole entry: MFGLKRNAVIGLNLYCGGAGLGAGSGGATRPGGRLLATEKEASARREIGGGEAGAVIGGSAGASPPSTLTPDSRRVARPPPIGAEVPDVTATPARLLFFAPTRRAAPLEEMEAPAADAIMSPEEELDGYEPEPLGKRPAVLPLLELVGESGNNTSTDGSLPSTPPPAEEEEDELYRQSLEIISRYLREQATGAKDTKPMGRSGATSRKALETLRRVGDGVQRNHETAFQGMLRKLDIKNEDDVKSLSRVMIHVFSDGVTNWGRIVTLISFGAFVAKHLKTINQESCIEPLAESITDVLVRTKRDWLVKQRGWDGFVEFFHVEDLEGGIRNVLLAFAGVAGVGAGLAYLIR

In patent US9096625B2, “BCL-2/BCL-XL inhibitors and therapeutic methods using the same” (THE REGENTS OF THE UNIVERSITY OF MICHIGAN, priority 2013, dated 2015):

Molecular target: Mcl-1 (Homo sapiens, UniProt Q07820)
Assay: Fluorescence polarization (FP)-based binding assay, Mcl-1
Conditions: FP competitive binding, Flu-BID probe; 3-5 independent experiments; read-out: Mcl-1 IC50 ± SD

CN(C)CC[C@H](CSc1ccccc1)Nc1ccc(S(=O)(=O)NC(=O)c2ccc(N3CCN(Cc4ccccc4-c4ccc(Cl)cc4)CC3)cc2)cc1[N+](=O)[O-] [ABT-737]
IC50: > 1000 nM
